## Yeast mating assay 2: variants of the scFv Ab-95

Reference: Engelhart et al. 2022, doi:10.1038/s41597-022-01779-4. File: FLAb, binding data.

Antigen: PDVDLGDISGINAS, a 14-residue peptide of the SARS-CoV-2 spike HR2 region.

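The starting antibody came from a phage panning campaign against this peptide. Library AAYL52 holds single substitutions and randomly drawn double and triple substitutions in the CDRs. The scFvs were displayed on barcoded MATa yeast, the peptide on MATalpha yeast. Mating (16 h, 30 °C) was followed by selection of diploids and sequencing of their barcodes. Scores were corrected for input abundance and mapped to Kd with protein pairs of known affinity run in the same pool. Mating was done three times.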

Each scFv is VH, three GGGGS repeats, VL, as in the parent Ab-95, and differs from it in the CDRs of the light chain only.
VH: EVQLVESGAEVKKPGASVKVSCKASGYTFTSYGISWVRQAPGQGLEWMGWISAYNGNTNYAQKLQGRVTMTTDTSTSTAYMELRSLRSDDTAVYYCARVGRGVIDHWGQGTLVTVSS
VL: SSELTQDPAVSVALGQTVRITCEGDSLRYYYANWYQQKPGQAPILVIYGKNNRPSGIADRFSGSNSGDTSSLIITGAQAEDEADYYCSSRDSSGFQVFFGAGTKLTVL

Substitutions are numbered in sequence along the VL above, starting at 1 (not Kabat). Every variant below is changed at D25 of the VL (sequential numbering). The read-out is the apparent dissociation constant on a log10 scale (nM): the lower, the stronger. A mean of the replicates is given; it leaves out those without a signal. Where no diploid with the target was found in any replicate, the entry reads "no signal": below detection, most likely a poor binder, though not proof of it.

changes	log10 Kd (nM), mean	seen in
D25A+S89A+R90Q	1.88	3 of 3
D25V+A32C+D91P	3.54	3 of 3
D25G+A32T+P54M	3.55	3 of 3
D25H+S26H+D91M	no signal	0 of 3
D25T+R28P+Y30Q	1.01	3 of 3
D25R+N51F+V97T	4.90	1 of 3
D25H+K50D+D91T	1.66	3 of 3
E23K+D25H+L27S	2.67	3 of 3
D25M+Y30F	0.62	3 of 3
D25H+L27F+V97W	3.85	3 of 3
E23Q+D25K+S88A	1.89	3 of 3
D25P+S55D+F98H	2.03	3 of 3
D25N+S26W	2.50	3 of 3
D25R+S88F+S92Y	2.26	3 of 3
D25A+R28K+Y30D	1.67	3 of 3
D25I+Y30M+D91P	2.55	3 of 3
D25G+Q96D+V97C	2.38	3 of 3
E23V+D25Y+R28M	3.08	3 of 3
D25T+R28Q+K50D	1.71	3 of 3
D25T+N52S+S92P	2.15	3 of 3
D25Y+Y30M+G49F	4.59	1 of 3
D25K+N33M+S92K	no signal	0 of 3
D25E+S26Q+S89K	4.77	1 of 3
D25K+Y29A+R90G	3.48	1 of 3
D25L+S55V+S88E	2.29	3 of 3
E23W+D25H+N33Y	3.68	3 of 3
D25N+R90Q+S93H	2.93	3 of 3
D25N+R53T+P54W	3.21	3 of 3
D25S+S55D+S88G	2.30	3 of 3
D25F+S88E+S89G	4.66	1 of 3
D25W+P54I+V97E	3.72	3 of 3
D25S+A32F+K50F	3.87	1 of 3
D25M+S88W+R90T	4.24	2 of 3
D25S+P54H+S55R	3.11	3 of 3
D25N+G49M+K50T	no signal	0 of 3
D25W+S55P+D91I	3.36	3 of 3
G24W+D25Q+S88C	no signal	0 of 3
D25T+K50I+V97D	3.56	2 of 3
D25T+R53Y+Q96M	no signal	0 of 3
D25T+Y29C+Q96A	3.50	3 of 3
D25K+R90W+F98V	3.76	3 of 3
D25F+N52D+V97H	3.47	3 of 3
D25S+L27F+V97W	3.87	3 of 3
D25L+S88W+F98P	3.39	1 of 3
D25T+L27F+G49D	2.96	3 of 3
D25I+N51V+F98C	3.09	1 of 3
D25K+Y31A+S93F	3.41	2 of 3
G24L+D25H+S55T	1.37	3 of 3
D25E+R90N+G94R	3.39	3 of 3
D25M+N33Q+S55K	3.14	3 of 3
D25N+Y29N+S55F	1.47	3 of 3
D25Y+R53D+S92K	5.78	1 of 3
D25G+L27Y+Q96G	4.05	2 of 3
D25E+S88R	3.08	3 of 3
E23I+D25Q+F98R	no signal	0 of 3
D25S+A32P+F98L	1.96	3 of 3
D25A+Y30I+S55V	2.52	3 of 3
G24W+D25K+L27N	3.46	1 of 3
D25W+R90A+F98S	4.15	2 of 3
D25Q+S92Q+F98N	2.63	3 of 3
D25H+N51F+Q96L	no signal	0 of 3
D25Y+Y31C+Q96F	3.39	1 of 3
E23K+D25R+S89E	2.86	3 of 3
D25S+Y29C+R90K	no signal	0 of 3
E23C+D25V+R28K	2.52	3 of 3

For reference, 5 entries of the list once more:

changes	log10 Kd (nM), mean	seen in
D25R+S88F+S92Y	2.26	3 of 3
E23I+D25Q+F98R	no signal	0 of 3
D25R+N51F+V97T	4.90	1 of 3
D25K+R90W+F98V	3.76	3 of 3
D25T+R28P+Y30Q	1.01	3 of 3

Parent in this assay: reference entry 2.31, copy in this library 2.25. Three control strains display no target. For library AAYL52, 28% of the pairings with them gave a signal, with a median of 3.91 and one signal in twenty below 2.90, so weak values seen in few replicates may be background.